{"source": "patent US20110039809A1", "about": "(priority 2008, published 2011)", "origin": "cited, not measured here", "conditions": "10′000 IU; Hathcock et al. 2007; cited from earlier work"}
{"substance": "Vitamin D", "values": [{"measurement": "Safe upper level", "result": "at least 250 μg/day"}]}
